Data as given in patent publication US5624932A (priority 1995, dated 1997).

Test system: dorsal root ganglion (DRG) neurons

Compound: COC1=CC=C2[C@H]3Cc4ccc(OC)c5c4[C@@]2(CCN3C)[C@H]1O5
- Alteration of action potential duration, opioid at low concentration (< nM): Prolongation
- Alteration of action potential duration, opioid at high concentration (μM): Shortening
